In PubChem BioAssay (Tox21):
Values joined by “and” are separate entries in the source; they are usually repeats but may differ in a detail not shown here. Identical values can stand only once. This is a selection; strong and weak results do not stand in their true shares. Results filed as inconclusive are left out. Some compounds were tested as several samples or in several runs, with calls that do not always agree. Active and inactive are the calls of the source. Unless noted, calls come from the whole dose curve; as a rule, active = well fitted curve in the direction sought with a large enough effect in the repeat runs; inconclusive = weak or mixed curves; inactive = no such curve, though single readings can be large; an effect the other way counts as inactive or inconclusive.

By UniProt entry, the sequences of proteins in these tests, tags left out.
UniProt P16473, whole entry: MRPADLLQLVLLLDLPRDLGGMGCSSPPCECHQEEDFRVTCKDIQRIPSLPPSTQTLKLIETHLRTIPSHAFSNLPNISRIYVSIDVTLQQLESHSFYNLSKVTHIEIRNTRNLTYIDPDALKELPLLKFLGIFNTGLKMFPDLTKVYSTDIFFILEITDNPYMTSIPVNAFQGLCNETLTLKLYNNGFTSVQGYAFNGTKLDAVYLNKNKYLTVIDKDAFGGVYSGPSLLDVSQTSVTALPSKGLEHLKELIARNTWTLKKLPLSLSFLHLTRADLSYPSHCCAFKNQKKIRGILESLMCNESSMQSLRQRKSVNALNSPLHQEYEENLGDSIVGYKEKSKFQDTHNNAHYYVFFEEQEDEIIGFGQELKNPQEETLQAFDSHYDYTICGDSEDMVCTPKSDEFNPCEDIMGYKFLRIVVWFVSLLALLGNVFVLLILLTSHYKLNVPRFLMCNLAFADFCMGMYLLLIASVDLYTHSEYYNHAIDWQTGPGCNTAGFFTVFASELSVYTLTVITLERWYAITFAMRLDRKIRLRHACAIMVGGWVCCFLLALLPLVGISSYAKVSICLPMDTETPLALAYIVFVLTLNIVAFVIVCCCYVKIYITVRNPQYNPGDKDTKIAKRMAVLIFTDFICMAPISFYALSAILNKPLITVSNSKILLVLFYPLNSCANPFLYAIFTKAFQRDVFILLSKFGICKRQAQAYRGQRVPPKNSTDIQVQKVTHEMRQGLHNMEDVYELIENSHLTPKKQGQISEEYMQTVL

How the values were obtained:
[1] = molecular target: Thyrotropin receptor (Homo sapiens) (UniProt P16473); experiment: qHTS assay to identify small molecule agonists of the thyroid stimulating hormone receptor (TSHR) signaling pathway (AID 1224843; calls by dose curve; note: nearly all actives have a fitted effect of over 45% in size; note: potency is the fitted concentration of half-maximal effect)
[2] = qHTS assay to identify small molecule agonists of the hypoxia (HIF-1) signaling pathway - cell viability counter screen (AID 1224844; calls by dose curve; note: nearly all actives have a fitted effect of over 50% in size); details: HRE-bla ME-180 viability, CellTiter-Glo luminescence, 17 h; at 76.8 µM (top of the series) unless noted
Method in brief: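 Viability counter screen: HRE-bla ME-180 cells plated 5 hrs before compound addition, treated 17 hrs at 37C and 5% CO2, then CellTiter-Glo added after the FRET reporter read; luminescence after 30 min.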

[3] = qHTS assay to identify small molecule agonists of H2AX (AID 1224845; active = well fitted activation curve with a large enough effect in the signal ratio in the repeat runs, not every such curve was filed as active; the % refers to the signal ratio); details: CHO-K1 phospho-H2AX Ser139 HTRF, 3 h; at 154 µM (top of the series) unless noted
Excerpt: (§1) National Center for Advancing Translational Sciences [NCATS]
(§2) NIH Chemical Genomics Center [NCGC]
(§3) U.S. Environmental Protection Agency [EPA]
(§4) National Institutes of Environmental Health Sciences [NIEHS]
(§5) National Toxicology Program [NTP]
(§6) U.S. Food and Drug Administration [FDA]
HTRF phospho-H2AX (Ser139) assay (Cisbio Bioassays, US) enables the quantitative detection of the histone variant H2AX when phosphorylated on serine 139. When double-stranded DNA breaks, either by ionizing radiation or endogenous physiological processes, H2AX becomes phosphorylated at Ser139. This phospho-Ser139 serves as a sensitive biomarker for the detection of such breaks, localizing the site of DNA repair. So, HTRF phospho-H2AX Ser139 is a pertinent assay to study genome stability, the cell cycle, DNA repair, and it serves as a biomarker for cancer, and to understand aging. Wild type CHO-K1 cells were used to identify the inducers of Phospho-H2AX Ser 139 from the Tox21 10K compound collections.
(§7) Tox21 Assay Protocol Summary:
The CHO-K1 cells suspended in culture medium containing 10% FBS were dispensed at 1000 cells/ 3 ul/well in 1536-well white wall/solid bottom plates (Greiner Bio-One North America, NC) using a Multidrop Combi (Thermo Fisher Scientific Inc., Waltham, MA). After the assay plates were incubated at 37C overnight, 23 nl of compounds at 15 concentrations (from 5-48 columns) or positive control (from 1 to 4 columns) were transferred to the assay plates using a Pintool station (Wako, San Diego, CA) into each well resulting in a final DMSO concentration of 0.76%. After 3hr incubation at 37C, 1 uL/well Supplemented Lysis buffer (diluted 100 fold blocking reagent in lysis buffer) (HTRF Phospho-H2A.X (S139) Assay kit from Cisbio US Inc., Bedford, MA) was added using a Flying Reagent Dispenser (FRD) (Aurora Discovery, CA). After 10sec spin at 1000 rpm in a plate centrifuge, the assay plates were incubated at room temperature for 30 min. Then followed by the addition of 1 uL/well detection buffer (containing a mixture of two antibodies, one labeled with cryptate, Anti pH2AX (S139)-K and another labeled with d2, Anti H2AX-d2) using FRD. After incubation at room temperature for 24 hr, the time resolved fluorescence at excitation 320 nm and emissions at 665 nm and 620 nm was measured using an Envision plate reader (PerkinElmer, Waltham, MA).

[4] = qHTS assay to identify small molecule agonists of the hypoxia (HIF-1) signaling pathway (AID 1224846; active = well fitted activation curve with a large enough effect in the signal ratio in the repeat runs, not every such curve was filed as active; the % refers to the signal ratio); details: HRE-bla ME-180 cells, beta-lactamase ratio, 17 h; at 76.8 µM (top of the series) unless noted
Method in brief: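 Agonist mode reporter screen. ME-180 cells stably expressing bla under HRE control received test compounds in DMSO for 17 hrs (37C, 5% CO2), and beta-lactamase activity was then detected with the CCF4-AM FRET substrate.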

[5] = qHTS assay to identify small molecule agonists of H2AX - cell viability counter screen (AID 1224847; calls by dose curve; note: top concentration of the series differs between compounds; nearly all actives have a fitted effect of over 30% in size); details: CHO-K1 viability, CellTiter-Glo luminescence, 3 h; at 154 µM (top of the series) unless noted
Method in brief: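 Viability of CHO-K1 (wild type) cells after 3 hr compound exposure was measured by CellTiter-Glo luminescence.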

[6] = qHTS assay to identify small molecule antagonists of the estrogen related receptor (ERR) signaling pathway from Tox21 library (AID 1224848); note: nearly all actives have a fitted effect of over 50% in size; note: potency is the fitted concentration of half-maximal effect
Method in brief: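 Quantitative high-throughput format: ERR reporter cells (2,000/well) pre-incubated 6 h, treated 18 h at 37 C with compounds in DMSO alongside positive and negative controls, then read by ONE-Glo luminescence.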

[7] = qHTS assay to identify small molecule agonists of the estrogen related receptor (ERR) signaling pathway from Tox21 library (AID 1224849; calls by dose curve; note: nearly all actives have a fitted effect of over 15% in size); details: ERR reporter cell line, ONE-Glo luciferase, 18 h; at 92.4 µM (top of the series) unless noted
Excerpt: as §1, §2, §3, §4, §5
Estrogen related receptors (ERRs), the first orphan nuclear receptors discovered, play an important role in the control of cellular energy metabolism. ERRs are required for high-energy production in response to the environmental challenges. ERR-alpha was also identified as an adverse marker for breast cancer progression; ERR-alpha-positive tumors have a poor prognosis. To screen and to identify environmental compounds that perturb the ERR signaling pathways could provide valuable information for potential therapeutic or preventive measures in the treatment of metabolic disease. For identifying ERR agonists, ERR cell line (provided by NTP) has been used to screen Tox21 10K library.
The ERR cells were dispensed at 2,000 cells/5 ul/well in 1536-well white plates using a Multidrop dispenser. After the assay plates were incubated at a 37 C/5% CO2 incubator for 6 hours, 23 nL of compounds dissolved in DMSO, positive and negative controls or DMSO only was transferred to the assay plate by a pin tool. The plates were incubated at 37 C for 18 hours. 4 ul/well of One-Glo reagent was added into the assay plates using a Flying Reagent Dispenser. After 30-minute incubation at room temperature, the luminescence intensity in the plates was measured using a ViewLux plate reader.

[8] = qHTS RealTime-Glo MT Cell Viability Assay in HepG2 cells - 24 hour (AID 1224867); details: RealTime-Glo luminescence; at 76.8 µM (top of the series) unless noted; note: nearly all actives have a fitted effect of over 50% in size
Excerpt: (§8) U.S. Tox21 Program National Center for Advancing Translational Sciences [NCATS] NIH Chemical Genomics Center [NCGC] U.S. Environmental Protection Agency [EPA] National Institutes of Environmental Health Sciences [NIEHS] National Toxicology Program [NTP] U.S. Food and Drug Administration [FDA] Tox21 Assay Overview: Measure of cell viability is critical in the cell-base assay. Analysis of cell viability is necessary for the characterization of cell responses to cytotoxic drugs and environmental stress. A RealTime-Glo MT Cell Viability Assay to monitor cell viability in real time of continues cell culture during 40 hours of compound treatment was used to screen Tox21 10K library compounds in HepG2 cells. The RealTime-Glo MT Cell Viability Assay is a nonlytic, homogeneous, bioluminescent method to measure cell viability in real time using a simple, plate-based method. The assay involves adding NanoLuc luciferase and a cell-permeant prosubstrate to cells in culture. Viable cells reduce the proprietary prosubstrate to generate a substrate for NanoLuc luciferase. This substrate diffuses from cells into the surrounding culture medium, where it is rapidly used by the NanoLuc Enzyme to produce a luminescent signal. The signal correlates with the number of viable cells, making the assay well suited for cytotoxicity studies.
(§9) Tox21 Assay Protocol Summary: The mixture of HepG2 cell suspension and reagents were dispensed at 600cells/6 ul/well in 1536-well tissue culture treated black solid bottom plates using a Multidrop dispenser. After the assay plates were incubated at a 37 C/5% CO2 incubator for 5 hours, 23 nL of compounds dissolved in DMSO, positive and negative controls was transferred to the assay plate by a pintool work station. The plates were incubated at 37 C for 40 hours. The luminescence intensity were measured at 0h, 8h, 16h, 24h, 32h and 40h time points using ViewLux plate reader during compound treatment.

[9] = qHTS RealTime-Glo MT Cell Viability Assay in HEK293 cells - 32 hour (AID 1224868); note: nearly all actives have a fitted effect of over 50% in size; note: potency is the fitted concentration of half-maximal effect
Excerpt: as §1, §2, §3, §4, §5, §6
as §8, with “Measure” for “U.S. Tox21 Program National Center for Advancing Translational Sciences [NCATS] NIH Chemical Genomics Center [NCGC] U.S. Environmental Protection Agency [EPA] National Institutes of Environmental Health Sciences [NIEHS] National Toxicology Program [NTP] U.S. Food and Drug Administration [FDA] Tox21 Assay Overview: Measure”, “Hek293” for “HepG2”
as §7
as §9, with “The” for “Tox21 Assay Protocol Summary: The”, “Hek293” for “HepG2”

[10] = A CellTox Green Cytotoxicity Assay to monitor cytotoxicity in HEK293 cells - 0 hour (AID 1224869); details: CellTox Green fluorescence; at 76.8 µM (top of the series) unless noted; note: nearly all actives have a fitted effect of over 50% in size
Excerpt: as §1, §2, §3, §4, §5
Cell-based models are critical for drug discovery. Determining the natural cytotoxic effects resulting from test compounds is an essential research activity. A CellTox Green Cytotoxicity Assay to monitor cytotoxicity in real time of continues cell culture during 40 hours of the compound treatment was used to screen Tox21 10K library compounds in Hek293 cells. CellTox Green Cytotoxicity Assay is a nonlytic, homogeneous, biofluorescent method to measure cytotoxicity in cell culture after experimental manipulation. The assay system uses a proprietary asymmetric cyanine dye that is excluded from viable cells but preferentially stains the dead cell's DNA. […] Viable cells produce no appreciable increases in fluorescence. Therefore, the fluorescence signal produced by the binding interaction with dead cell DNA is proportional to cytotoxicity.
as §9, with “The” for “Tox21 Assay Protocol Summary: The”, “Hek293” for “HepG2”, “fluorescence” for “luminescence”
% is set by controls: 0 for no effect and ±100 for the full control effect.

SMILES | Potency [1] | activity change, negative = cytotoxicity [2] | activation (H2AX phosphorylation) [3] | activation [4] | activity change, negative = cytotoxicity [5] | Potency [6] | activity change, positive = activation [7] | activity change, negative = cytotoxicity [8] | Potency [9] | cytotoxicity [10]
CCOP(=S)(Cl)OCC | inactive | inactive: 0.376% | inactive: 0.442% | inactive: -0.0436% | inactive: -0.049% | inactive | inactive: -15.2% | inactive: -3.42% | inactive | inactive: 2.07%
CCOC(=O)N1CCC(=O)CC1 | inactive | inactive: 1.68% [at 35.3 µM] | inactive: -1.06% [at 70.9 µM] | inactive: -0.907% [at 35.5 µM] | inactive: 3.67% [at 70.9 µM] | inactive | inactive: 0.104% [at 42.5 µM] | inactive: 1.06% [at 35.3 µM] | inactive | inactive: 2.09% [at 35.3 µM]
CCOP(=O)(Cl)Cl | active: 9.52 µM and inactive | inactive: 6.54% and inactive: 0.47% | inactive: 3.02% and inactive: -0.493% | inactive: -0.0415% and inactive: -0.0696% | inactive: -2.05% and inactive: -0.653% | inactive | inactive: -2.01% and inactive: -4.33% | inactive: 0.457% and inactive: -0.378% | inactive and active: 21.9 µM | inactive: -8.35% and inactive: -0.857%
ClCCOP(OCCCl)OCCCl | inactive | inactive: 0.998% and inactive: -0.521% | inactive: 0.346% and inactive: 0.482% | inactive: 0.368% and inactive: 0.0801% | inactive: -1.14% and inactive: -3.63% | inactive | inactive: 0.387% and inactive: 2.66% | inactive: 1.86% and inactive: 1.08% | inactive | inactive: -4.17% and inactive: 4.81%
CC(C)OP(OC(C)C)OC(C)C | inactive | inactive: 0.597% | inactive: -2.27% | inactive: -1.08% | inactive: 1.96% | inactive | inactive: 0.516% | inactive: 0.0636% | inactive | inactive: 0.236%
O=[N+]([O-])c1ccccc1[N+](=O)[O-] | inactive |  | inactive: -1.71% | inactive: -1.12% and inactive: -0.697% | inactive: -7.3% and inactive: 1.48% | active: 70.3 µM and inactive | inactive: -32.1% and inactive: -17.3% | inactive: 1.83% and inactive: 0.832% | inactive | inactive: -0.153% and inactive: 0.438%
ClCCNCCCl | inactive | inactive: -18.7% | inactive: 2.77% | inactive: 0.155% | inactive: -0.141% | inactive | inactive: -8.64% | inactive: -4.52% | inactive | inactive: 0.302%
CCC(=O)N(c1ccccc1)C1CCNCC1 | inactive | inactive: 2.72% [at 35.3 µM] | inactive: 1.13% [at 70.9 µM] | inactive: -0.119% [at 35.5 µM] | inactive: 0.761% [at 70.9 µM] | inactive | inactive: 2.02% [at 42.5 µM] | inactive: 4.92% [at 35.3 µM] | inactive | inactive: -2.1% [at 35.3 µM]
